# “And” between values parts separate entries of the source, which are not always exact repeats. Equal entries are not always repeated. Only a part is listed here, and it is no random draw. The source made the active and inactive calls. No stated cut-off is given here; in the data, active means inhibition above about 40%; inactive means the rest.
# The chains behind the UniProt entries cited, without tags or fusion partners. Where a name states a change or a piece, a line headed by the entry shows the natural chain unless it says otherwise.
# UniProt P00748: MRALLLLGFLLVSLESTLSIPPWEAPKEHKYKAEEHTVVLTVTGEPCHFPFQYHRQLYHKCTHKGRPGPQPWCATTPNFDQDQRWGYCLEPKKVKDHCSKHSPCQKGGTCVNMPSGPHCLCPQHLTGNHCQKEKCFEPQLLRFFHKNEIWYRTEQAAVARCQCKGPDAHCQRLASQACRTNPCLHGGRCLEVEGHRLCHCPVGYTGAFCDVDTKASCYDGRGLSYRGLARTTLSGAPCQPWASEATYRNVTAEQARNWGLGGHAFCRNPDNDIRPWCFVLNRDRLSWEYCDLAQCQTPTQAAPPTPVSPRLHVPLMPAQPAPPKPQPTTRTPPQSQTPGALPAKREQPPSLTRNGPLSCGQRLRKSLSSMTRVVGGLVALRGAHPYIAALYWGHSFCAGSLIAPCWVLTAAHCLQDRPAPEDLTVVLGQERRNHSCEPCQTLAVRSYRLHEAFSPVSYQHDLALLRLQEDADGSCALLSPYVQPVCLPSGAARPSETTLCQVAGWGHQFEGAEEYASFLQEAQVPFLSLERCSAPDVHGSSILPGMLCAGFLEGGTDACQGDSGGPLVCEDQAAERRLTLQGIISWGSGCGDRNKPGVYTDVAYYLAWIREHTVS
# Biological target: Coagulation factor XII (Homo sapiens) (UniProt P00748)
# Assay: coagulation factor XIIa activity inhibition – biochemical, 1536-well, primary screen (AID 800);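 further: 0% = enzyme with no compound and 100% = blank without enzyme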
# Conditions: purified FXIIa, Boc-QGR-AMC fluorogenic substrate, 2 h; at 5 µM; active compounds read high
row,Structure (SMILES),inhibition
1,CCOC(=O)NC(Sc1ccccc1)C(Cl)(Cl)Cl (stereo not drawn),inactive: 11.8%
2,Cc1ccc(NP(=O)(Oc2cccc(C)c2)Oc2cccc(C)c2)nc1,inactive: 7.15%
3,c1ccc(-c2nn[nH]n2)c(-c2nn[nH]n2)c1,inactive: 3.44%
4,CCNC(=S)/N=C(\N)N[N+](=O)[O-],inactive: 0.08%
5,CCC(=O)N1C2C3N(C(=O)CC)C1C1N(C(=O)CC)C(C(N1C(=O)CC)N3C(=O)CC)N2C(=O)CC,inactive: 27.2%
6,Cc1ccc(OP(=O)(Nc2ccccn2)Oc2ccc(C)cc2)cc1,inactive: 4.05%
7,CC(=O)NC(SC(=S)N(CC(C)C)CC(C)C)C(Cl)(Cl)Cl (stereo not drawn),inactive: 22.9%
8,COC(=O)c1cc2c(s1)N=C(c1ccccc1)N(C)P2(=O)N1CCOCC1 (stereo not drawn),inactive: 16.4%
9,CN(C)C(=O)Oc1noc2ccccc12,inactive: 8.77%
10,O=c1c2cc([N+](=O)[O-])ccc2[nH]c2c([N+](=O)[O-])cc([N+](=O)[O-])cc12,inactive: 7.59%
11,Cc1ccccc1OP(=O)(Nc1ccccn1)Oc1ccccc1C,inactive: 11.9%
12,CCOc1ccc(C2=NCC(CBr)S2)cc1 (stereo not drawn),inactive: 6.47%
13,O=P1(Nc2nc3ccc(Cl)cc3s2)COc2ccccc2O1 (stereo not drawn),inactive: 13.9%
14,CC(C)(C)C(=O)NC(Sc1ccccc1)C(Cl)(Cl)Cl (stereo not drawn),inactive: -1.24%
15,C[C@@H]1C=CCP(=O)(Oc2ccccc2)O1 (stereo partly drawn),inactive: 6.4%
16,C[C@H]1OP(=O)(Oc2ccccc2)C[C@@H]2O[C@@H]21 (stereo partly drawn),inactive: 7.85%
17,CC(=O)Nc1ccc(Oc2c([N+](=O)[O-])cc([N+](=O)[O-])cc2[N+](=O)[O-])cc1,inactive: 4.86%
18,CC(=O)Nc1ccc([As](=O)(O)O)c(O)c1,inactive: 3.65%
19,O=P(Nc1nccs1)(c1ccccc1)c1ccccc1,inactive: -3.43%
20,CC(C)C(=O)NC(Sc1ccccc1)C(Cl)(Cl)Cl (stereo not drawn),inactive: 6.71%
21,c1nnnn1CCn1cnnn1,inactive: 0.38%
22,C[C@H]1OP(=O)(Oc2ccccc2)[C@H](O)[C@H](O)[C@H]1N=[N+]=[N-] (stereo partly drawn),inactive: 8.14%
23,O=P(Nc1nc2ccccc2s1)(c1ccccc1)c1ccccc1,inactive: 0.22%
24,O=[As](O)(c1ccccc1)c1ccc(O)cc1,inactive: 3.46%
25,O=[N+]([O-])c1ncn(CCn2cnc([N+](=O)[O-])n2)n1,inactive: 0.53%
26,CC(=O)NC(SC(=S)N(C)C)C(Cl)(Cl)Cl (stereo not drawn),inactive: 7.67%

row,Structure (SMILES),inhibition
1,O=C(OC1CN2CCC1CC2)c1cccc(Cl)c1 (stereo not drawn),inactive: 14.3%
2,Nc1ccc([As](=O)(O)c2ccc([N+](=O)[O-])cc2)cc1,inactive: 3.68%
3,C(Cc1nn[nH]n1)Cc1nn[nH]n1,inactive: 10%
4,O=C(Nc1cc([As](=O)(O)O)ccc1O)c1ccccc1,inactive: 4.81%
5,O=[N+]([O-])c1ncn(CCn2ncnc2[N+](=O)[O-])n1,inactive: 5.59%
6,CC(C)(C)C(=O)NC(Sc1ccncn1)C(Cl)(Cl)Cl (stereo not drawn),inactive: 0.69%
7,O=C(O)CNc1ccc([As](=O)(O)O)cc1,inactive: 7.32%
8,O=[N+]([O-])c1cccc(NC2=NCC(CBr)S2)c1 (stereo not drawn),inactive: 8.92%
9,COc1ccc(C2=NCC(CBr)S2)cc1 (stereo not drawn),inactive: 4.02%
10,O=[N+]([O-])c1cc([N+](=O)[O-])c(CCNc2ccccc2)c([N+](=O)[O-])c1,inactive: 5.43%
11,CCc1nc2c(n1)c1c(non1O)c1c2no[n+]1[O-],inactive: 28%
12,Cc1ccc(NP(=O)(Oc2ccccc2)Oc2ccccc2)nc1,inactive: -1.54%
13,CC(=O)N1C2C3N(C(C)=O)C1C1N(C(C)=O)C(C(N1C(C)=O)N3C(C)=O)N2C(C)=O,inactive: 7.87%
14,O=[N+]([O-])c1cccc2n[nH]nc12,inactive: 11.6%
15,CCN(/C(=N/P(=O)(N1CCOCC1)N1CCOCC1)N1CCOCC1)c1ccc(OC)cc1,inactive: 3.3%
16,C[N+]1=C2C=CC=CC=C2SC12C([N+](=O)[O-])=CC([N+](=O)[O-])=C[C-]2[N+](=O)[O-] (stereo not drawn),inactive: 9.87%
17,Nc1ccc([As](=O)(O)c2ccc(N)cc2)cc1,inactive: 12.3%
18,CC1CCN(C(=O)Oc2c(Cl)cc(Cl)c3cccnc23)CC1,inactive: 13.7%
19,CN(C)C(=O)OCCc1n(C)cc[n+]1C,inactive: 0.59%
20,CC(C)=N/N=C(\N)N[N+](=O)[O-],inactive: 2.82%
21,Cc1ccc(N/C(=N/P(=O)(N2CCOCC2)N2CCOCC2)N2CCOCC2)cc1,inactive: 10.2%
22,NC(=O)c1cc([N+](=O)[O-])cc([N+](=O)[O-])c1N,inactive: 4.99%
23,Clc1ccc(Cl)c(NC2=NCC(CBr)S2)c1 (stereo not drawn),inactive: 6.45%
24,CN1CCCC(OC(=O)C(c2ccccc2)c2ccccc2)C1 (stereo not drawn),inactive: 23.5%
25,Cc1ccc(OP(=O)(Nc2nccs2)Oc2ccc(C)cc2)cc1,inactive: 8.58%
26,COc1ccccc1OP(=O)(Nc1ccc(C)cn1)Oc1ccccc1OC,inactive: 2.71%

row,Structure (SMILES),inhibition
1,Cc1c2non([O-])c-2c(C)[n+](=O)[n+]1[O-],inactive: 25.2%
2,O=C(NC(Sc1ccncn1)C(Cl)(Cl)Cl)c1ccccc1 (stereo not drawn),inactive: -2.02%
3,Oc1ccccc1CNc1ccccn1,inactive: 15.6%
4,CC(C)CC(=O)NC(Sc1ccc(Cl)cc1)C(Cl)(Cl)Cl (stereo not drawn),inactive: 15.7%
5,Nc1cc(N)c2nonc2c1[N+](=O)[O-],inactive: 15.1%
6,O=P(Nc1nc2ccc(Cl)cc2s1)(c1ccccc1)c1ccccc1,inactive: 9.69%
7,O=C(O)c1ccccc1[As](=O)(O)O,inactive: 5.22%
8,CC(=O)Nc1ccc([As](=O)(O)O)cc1,inactive: 12.1%
9,Cc1ccc(NP(=O)(Oc2ccccc2F)Oc2ccccc2F)nc1,inactive: 36.8%
10,CCOP(=O)(Nc1ccccc1)OCC,inactive: 15.1% and inactive: 8.16%
11,Cc1cc(SC(NC(=O)c2ccc(F)cc2)C(Cl)(Cl)Cl)ncn1 (stereo not drawn),inactive: 5.6%
12,Nc1cccc2ccc([As](=O)(O)O)cc12,inactive: 6.12%
13,CCN(N=Nc1nonc1N)c1nonc1N,inactive: 5.25%
14,O=[As](O)(c1ccc(O)cc1)c1ccccc1O,inactive: 7.02%
15,C[As](=O)(O)c1cccc(C(=O)O)c1,inactive: 4.65%
16,Cc1ccc(OP(=O)(Nc2ccc([N+](=O)[O-])cn2)Oc2ccc(C)cc2)cc1,inactive: 3.07%
17,Cc1ccc2nc3c(c(C)c2c1)CC(C(Cl)Cl)S3 (stereo not drawn),inactive: 7.44%
18,ClCCSc1nnc(-c2cccnc2)o1,inactive: 9.48%
19,CC(C)c1ccc(OP(=O)(Nc2ccccn2)Oc2ccccc2F)cc1 (stereo not drawn),inactive: 6.84%
20,O=[N+]([O-])c1cc([N+](=O)[O-])c(-c2ccn[nH]2)s1,inactive: 8.55%
21,CCN(CC)C(=S)SC(NC=O)C(Cl)(Cl)Cl (stereo not drawn),inactive: 5.73%
22,Cc1c2c(nc3ccccc13)SC(C(Cl)Cl)C2 (stereo not drawn),inactive: 7.33%
23,Cc1cc(=O)[nH]c(N[N+](=O)[O-])n1,inactive: 3.29%
24,O=C(OC1CN2CCC1CC2)C12CC3CC(CC(C3)C1)C2 (stereo not drawn),inactive: -9.5%
25,COc1cc(I)ccc1[As](=O)(O)O,inactive: 11.8%
26,COc1ccc2nc(NP(=O)(c3ccccc3)c3ccccc3)sc2c1,inactive: 4.85%

row,Structure (SMILES),inhibition
1,COc1ccc(N/C(=N/P(=O)(N2CCOCC2)N2CCOCC2)N2CCOCC2)cc1,inactive: 3.23%
2,COP1(=S)c2c(C)nn(CCC#N)c2N=C(c2ccc(F)cc2)N1C (stereo not drawn),inactive: 1.4%
3,O=C(COc1ccccc1)OC1CN2CCC1CC2 (stereo not drawn),inactive: -3.45%
4,CCOC(=O)c1ccc(NC(=O)C(C)(CCl)SC)cc1 (stereo not drawn),inactive: 11.2%
5,CCC(C)N(CC(C)C)C(=S)SC(NC(C)=O)C(Cl)(Cl)Cl (stereo not drawn),inactive: 19.9%
6,CCOC(=O)Nc1ccc([As](=O)(O)O)c(O)c1,inactive: 7.25%
7,Cc1cc(SC(NC(=O)c2ccccc2)C(Cl)(Cl)Cl)nc(C(C)C)n1 (stereo not drawn),inactive: 7.27%
8,CCOC(=O)Nc1cccc([As](=O)(O)O)c1,inactive: 5.16%
9,Cc1cc(SC(NC=O)C(Cl)(Cl)Cl)ncn1 (stereo not drawn),inactive: 8.05%
10,O=P(Nc1ccccn1)(c1cccc2ccccc12)c1cccc2ccccc12,inactive: -5.94%
11,O=[N+]([O-])c1ccc(Nc2ccc(Oc3ccc([N+](=O)[O-])cc3[N+](=O)[O-])cc2)c([N+](=O)[O-])c1,inactive: 6.55%
12,CC1CCC(C(C)C)C(OP(=O)(Nc2ccccn2)c2ccccc2)C1 (stereo not drawn),inactive: 6.39%
13,Cc1nn(-c2ccccc2)c2c1P(=O)(N1CCOCC1)N(C)C(c1ccccc1)=N2 (stereo not drawn),inactive: -0.78%
14,CN(C)C1(CNC(=O)c2ccc(S(C)(=O)=O)cc2)CCCCC1,inactive: 0.83%
15,O=C(/C=C/c1ccccc1)OC1CN2CCC1CC2 (stereo not drawn),inactive: 11.4%
16,O=P1(Nc2ncccn2)COc2ccccc2OC1,inactive: -8.5%
17,Nc1cccc([As](=O)(O)c2ccccc2)c1,inactive: 9.88%
18,O=P1(Nc2ccc(Br)cn2)COc2ccccc2OC1,inactive: 9.71%
19,O=[As](O)(c1cccs1)c1cccs1,inactive: 7.14%
20,Cc1ccc(OCC(=O)OC2CN3CCC2CC3)cc1 (stereo not drawn),inactive: 19.5%
21,O=P1(Nc2ccccn2)COc2ccccc2OC1,inactive: -2.21%
22,CCOP(=O)(Nc1ccc(C)cn1)OCC,inactive: 10%
23,CC(C)(C)C(=O)NC(Sc1ncccn1)C(Cl)(Cl)Cl (stereo not drawn),inactive: 11.2%
24,Clc1n[nH]nc1-c1nn[nH][15n]1,inactive: 15.8%
25,CC(C)/C=N\N=C(\N)N[N+](=O)[O-],inactive: 11.2%

# Reference: PubChem BioAssay AID800 (PCMD, 2007)
